# Earlier results in US20110039811A1, “TREATING HYPERGLYCEMIA WITH 25-HYDROXYVITAMIN D3” (priority 2008, published 2011).
# Conditions: Hathcock et al. 2007; 10'000 IU; cited from earlier work
substance,measurement,value
Vitamin D,safe upper level,at least 250 μg/day
